For this experiment, the target named is His6-Munc18a (rat, UniProt P61765 1-594). Put plainly: pull-down.

B1: syntaxin4, full-length, liposome-anchored (natural protein)
chain: MRDRTHELRQGDNISDDEDEVRVALVVHSGAARLSSPDDEFFQKVQTIRQTMAKLESKVRELEKQQVTILATPLPEESMKQGLQNLREEIKQLGREVRAQLKAIEPQKEEADENYNSVNTRMKKTQHGVLSQQFVELINKCNSMQSEYREKNVERIRRQLKITNAGMVSDEELEQMLDSGQSEVFVSNILKDTQVTRQALNEISARHSEIQQLERSIRELHEIFTFLATEVEMQGEMINRIEKNILSSADYVERGQEHVKIALENQKKARKKKVMIAICVSVTVLILAVIIGITITVG
For B1, the binding result is recorded as “binds”.

Values taken from paper PMC5651683 (The Biochemical journal, 2017).
